Laboratory results: PubChem BioAssay AID1224905 (ICCB-Longwood Screening Facility, Harvard Medical School, 2016)
About 880 (0.42%) of roughly 210,000 compounds were called active. The sample as a whole holds a higher share of actives than the screen did. Unmarked numbers belong to inactive results.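 How the source made its calls: active means replicate mean at 85% of control or lower with very high polarization wells dropped (limit read from the data); inactive means the rest.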

The chains behind the UniProt entries cited, without tags or fusion partners.
UniProt P08753, whole entry, looked up: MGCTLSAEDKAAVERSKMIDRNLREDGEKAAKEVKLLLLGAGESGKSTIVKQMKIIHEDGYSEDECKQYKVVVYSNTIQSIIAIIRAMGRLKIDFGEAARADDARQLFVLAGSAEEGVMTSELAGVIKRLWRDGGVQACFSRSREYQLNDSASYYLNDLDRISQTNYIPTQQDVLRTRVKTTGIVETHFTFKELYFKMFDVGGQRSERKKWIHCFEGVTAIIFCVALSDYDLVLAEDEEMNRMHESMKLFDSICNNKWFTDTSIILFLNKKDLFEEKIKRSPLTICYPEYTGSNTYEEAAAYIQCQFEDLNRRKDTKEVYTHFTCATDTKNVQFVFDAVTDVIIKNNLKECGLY

Each compound was assayed against Guanine nucleotide-binding protein G(i) subunit alpha-3 (Rattus norvegicus) (UniProt P08753) (assay: inhibitors of GIV peptide binding to Galpha-i3, primary screen, biochemical, fluorescence polarization, FITC-GIV GBA peptide, rat Galphai3 (AID 1224905)). Settings: 90 min, stronger effect = lower value, scaled: aluminum fluoride 0%, vehicle 100%.
For `O=C(NCc1ccco1)c1cc2nc(-c3ccc(Cl)c(Cl)c3)cc(C(F)(F)F)n2n1`, the percent of control (FP) was 101%.
For `O=C(O)c1cc(NS(=O)(=O)c2ccc3c(c2)CCCC3)cnc1N1CCOCC1`, the percent of control (FP) was 80.8% (active).
In the case of `O=C(O)c1cc(NS(=O)(=O)c2cc(F)ccc2F)cnc1N1CCC(N2CCCCC2)CC1`, the percent of control (FP) was 93.7%.
For `Cn1c(=O)n(C)c2cc(N3CCOCC3)c(NS(=O)(=O)c3ccc4c(c3)CCCC4)cc21`, the percent of control (FP) was 103%.
In the case of `O=C(CSc1nnc(C2COc3ccccc3O2)n1-c1ccccc1)c1cccc([N+](=O)[O-])c1` (stereo not given), the percent of control (FP) was 99.2%.
For `COc1ccccc1N1C(=O)NC(=O)/C(=C/c2cn(C(C)=O)c3ccccc23)C1=O`, the percent of control (FP) was 118%.
For `COCCNC(=O)Cn1cc(/C=C2\C(=O)NC(=O)N(C3CCCCC3)C2=O)c2ccccc21`, the percent of control (FP) was -38.3% (active).
With `Cc1cc(Br)ccc1N1C(=O)NC(=O)/C(=C/c2cn(CC(=O)N3CCOCC3)c3ccccc23)C1=O` the percent of control (FP) was 103%.
With `NC(=O)c1nsc2c(=O)n(CC(=O)NCc3ccco3)cnc12` the percent of control (FP) was 95.4%.
`CCOC(=O)c1c(NC(=S)NC(=O)c2ccccc2)sc2c1CC(C)(CC)OC2` (stereo not given) showed a percent of control (FP) of 107%.
`Cc1cc(C)c2[nH]c(=O)c(NC(N)=S)nc2c1` was tested, and the percent of control (FP) was 109%.
Compound `Cc1c(C(=O)NCC2COc3ccccc3O2)sc2ncnc(N3CCCCC3C)c12` (stereo not given) has a percent of control (FP) of 103%.
Work on `COc1ccccc1N(Cc1nc2nc(C)cc(C)n2n1)C(=O)C(C)(C)C` yielded a percent of control (FP) of 105%.
`COc1cc(-c2noc(-c3cc(-c4cc(C)ccc4C)n[nH]3)n2)ccc1OC(C)C` showed a percent of control (FP) of 109%.
`O=C(NCc1ccc2c(c1)OCO2)C1CCCN(S(=O)(=O)N2CCOCC2)C1` (stereo not given) was tested, and the percent of control (FP) was 105%.
`CN1CCN(NC(=O)CCN2C(=O)/C(=C\c3ccco3)SC2=S)CC1` gave a percent of control (FP) of 106%.
In the case of `CN1C(=O)/C(=C/c2ccco2)SC1=Nc1cccc(C(=O)O)c1`, the percent of control (FP) was 103%.
`O=C(O)CCC(C(=O)O)N1C(=O)/C(=C\c2ccco2)SC1=S` (stereo not given) was tested, and the percent of control (FP) was 79.9% (active).
In the case of `COc1ccc(S(=O)(=O)N2CCC(NC(=O)NCc3ccc(C)cc3)CC2)cc1`, the percent of control (FP) was 98.6%.
`O=C(NCCCN1CCC(N2CCCCC2)CC1)c1nnc(C(=O)Nc2ccccc2)s1` gave a percent of control (FP) of 101%.
Compound `O=C(CCc1ccccc1)N1CCN(C(=O)c2cc3cc(Br)ccc3[nH]2)CC1` has a percent of control (FP) of 108%.
With `CN1C=C/C(=C\C=C2/C=Nc3ccccc32)c2ccccc21` the percent of control (FP) was -76.3% (active).
Work on `CCCCN(CCCNC(=O)Nc1cn(CC(C)C)c(=O)c2ccccc12)Cc1ccccc1` yielded a percent of control (FP) of 98.7%.
Work on `COc1ccc(S(=O)(=O)Nc2cc(C(=O)O)cnc2N2CCC(Cc3ccccc3)CC2)cc1` yielded a percent of control (FP) of 102%.
`Cc1ccc(N2C(=O)/C(=C/c3ccc(OCC(=O)O)c(Br)c3)C(=O)NC2=S)cc1` was tested, and the percent of control (FP) was 82.1% (active).
Compound `COc1ccc(N2C(=O)/C(=C/c3cc(Cl)c(OCC(=O)O)c(Cl)c3)C(=O)NC2=S)cc1` has a percent of control (FP) of 94.6%.
For `COC(=O)COc1ccc(/C=C2\C(=O)NC(=S)N(c3ccc(Br)cc3)C2=O)cc1OC`, the percent of control (FP) was 104%.
For `Cc1oc(C2CCN(C(=O)Cc3ccsc3)CC2)nc1C(=O)N1CCCC1`, the percent of control (FP) was 99.3%.
In the case of `CC(C)CC(C(=O)Nc1ccc(Cl)cc1)N1C(=O)c2ccccc2C1=O` (stereo not given), the percent of control (FP) was 108%.
Work on `CCOC(=O)c1c(NC(=O)C(C)Sc2nnc(CNC(=O)c3cccs3)n2C2CCCCC2)sc2c1CCCC2` (stereo not given) yielded a percent of control (FP) of 109%.
`CC[n+]1c(/C=C/C=C2\N(C)c3ccccc3C2(C)C)n(-c2ccccc2)c2ccc(Cl)cc21` was tested, and the percent of control (FP) was -32.2% (active).
In the case of `CC[n+]1c(C)n(-c2ccccc2)c2ccc(N)cc21`, the percent of control (FP) was 101%.
Work on `COc1ccccc1CNC(=O)C1CCCN1c1nn2c(=O)cc(C)nc2s1` (stereo not given) yielded a percent of control (FP) of 96.8%.
Compound `O=C(/C=C/c1ccccc1)Nc1cc(C(=O)N2CCc3ccccc3C2)ccc1N1CC2CC(C1)c1cccc(=O)n1C2` (stereo not given) has a percent of control (FP) of 108%.
`CCN(CC)c1cc(NC2CCCCC2)c2c3c(onc13)-c1ccccc1C2=O` was tested, and the percent of control (FP) was -7.19% (active).
Compound `CCOC(=O)N1CCN(c2cc(Nc3c(C)cc(C)cc3C)c3c4c(onc24)-c2ccccc2C3=O)CC1` has a percent of control (FP) of 140%.
For `CCNc1cc(Nc2ccccc2)c2c3c(onc13)-c1ccccc1C2=O`, the percent of control (FP) was 104%.
In the case of `CC1CCN(S(=O)(=O)c2ccc3nn(CC(=O)OC(C)C)c(=O)n3c2)CC1`, the percent of control (FP) was 103%.
`COc1ccccc1-c1c(C(F)(F)F)oc2c(CN3CCN(C)CC3)c(O)ccc2c1=O` gave a percent of control (FP) of 102%.
Work on `Cc1nn(CCC(=O)NC2CCCC2)c(=O)c2nn(-c3ccccc3)c(C)c12` yielded a percent of control (FP) of 98.5%.
In the case of `CC(C)c1ccc(NC(=O)c2ccc3c(O)c(S(=O)(=O)c4ccccc4)c(=O)[nH]c3c2)cc1`, the percent of control (FP) was 98.9%.
With `CC(=O)Nc1ccc(Nc2c3c4c(cccc4[nH]c2=O)C(=O)c2ccccc2-3)cc1` the percent of control (FP) was 60.9% (active).
Compound `CC(=O)Nc1ccc(NS(=O)(=O)c2cc(S(=O)(=O)Nc3ccc(NC(C)=O)cc3)c3cccc4c3c2NC4=O)cc1` has a percent of control (FP) of 108%.
Compound `CCC(C)OC(=O)C1=C(C)NC2=C(C(=O)CC(c3ccc(OC)cc3)C2)C1c1cc2c(cc1[N+](=O)[O-])OCO2` (stereo not given) has a percent of control (FP) of 103%.
For `CCCCc1nnc2sc(-c3cccc(N(C)C)c3)nn12`, the percent of control (FP) was 97.3%.
Work on `Cc1nn(C)c(C)c1CCN(C)C(=O)Nc1ccc(Br)cc1F` yielded a percent of control (FP) of 105%.
With `COc1ccc(-n2ccc(=O)c(-c3nc(-c4ccc(F)c(Cl)c4)no3)n2)cc1` the percent of control (FP) was 102%.
For `Fc1cccc(CNC2=NCCNC23CCCCCC3)c1`, the percent of control (FP) was 112%.
With `COC1=C(N2CCOCC2)C(=O)c2ccccc2C1=O` the percent of control (FP) was 81.8% (active).
With `COc1ccc(N2CCN(C(C)=C3C(=O)c4ccccc4C3=O)CC2)cc1` the percent of control (FP) was 97.8%.
Compound `Cc1cc(N2CCOCC2)ccc1C=C1C(=O)c2ccccc2C1=O` has a percent of control (FP) of 123%.
Work on `Nc1nc(=O)n(C2OC(CO)C(O)C2O)cc1Br` (stereo not given) yielded a percent of control (FP) of 107%.
In the case of `CCN1CCN(Cc2c(O)ccc3c(=O)c(Oc4ccccc4Br)c(C(F)(F)F)oc23)CC1`, the percent of control (FP) was 96.7%.
For `Cn1nc(-c2ccccc2F)c2cc(C(=O)Oc3ccc4cnccc4c3)sc21`, the percent of control (FP) was 109%.
`N#CC1=C2Sc3ccccc3N2CC1=O` was tested, and the percent of control (FP) was -54.5% (active).
`CCOC(=O)c1[nH]c(=O)[nH]c1CSc1nnc(SCc2[nH]c(=O)[nH]c2C(=O)OCC)s1` gave a percent of control (FP) of 118%.
In the case of `N#CSc1cc(SC#N)c(N)nc1N`, the percent of control (FP) was 16% (active).
Work on `COc1cccc(N/C(SCc2ccccc2C)=C(/C#N)C(=O)NCCc2ccc(OC)c(OC)c2)c1` yielded a percent of control (FP) of 104%.
Compound `CCC(C)OC(=O)C1=C(C)NC(=O)NC1c1ccc(OC)c(OCc2ccccc2)c1` (stereo not given) has a percent of control (FP) of 99.4%.
For `COc1cc(C=C2C(=O)NC(=O)NC2=O)cc(Cl)c1OCCOc1ccc(C)cc1`, the percent of control (FP) was 103%.
`CCOc1cc(/C=C2/C(=O)N(c3nn[nH]n3)N=C2C)cc(Cl)c1OCC` was tested, and the percent of control (FP) was 74.3% (active).
`CCOC(=O)c1ccc(N2N=C(C(F)(F)F)/C(=C/c3cc(Cl)c(O)c(OC)c3)C2=O)cc1` showed a percent of control (FP) of 109%.
For `O=C(C1CCN(c2nc(-c3ccc(Cl)cc3)no2)CC1)N1CCC(N2CCCCC2)CC1`, the percent of control (FP) was 104%.
Work on `CCSCCOC(=O)C1=C(C)N(C)C(=O)NC1c1ccccc1OCc1ccccc1` (stereo not given) yielded a percent of control (FP) of 104%.
For `CC(=O)N(CCN(C)C)c1nc2cc3c(cc2s1)OCO3`, the percent of control (FP) was 100%.
`c1c2c(cc3sc(N4CCCCC4)nc13)OCCO2` showed a percent of control (FP) of 101%.
In the case of `c1csc(Nc2nc3cc4c(cc3s2)OCO4)n1`, the percent of control (FP) was -40.2% (active).
`O=C(CCn1nnc2cc(S(=O)(=O)N3CCCC3)ccc21)N1CCN(c2ccccn2)CC1` showed a percent of control (FP) of 112%.
In the case of `Cc1c(CNCCc2ccc(S(N)(=O)=O)cc2)c(C(=O)O)c(C)n1Cc1ccc(F)cc1`, the percent of control (FP) was 98.6%.
`CC1(C)C2CCC1(CS(=O)(=O)Nc1cc(C(=O)N3CCOCC3)ccc1N1CC3CC(C1)c1cccc(=O)n1C3)C(=O)C2` (stereo not given) gave a percent of control (FP) of 106%.
For `O=C(O)c1cc(N2C(=O)C3C4C=CC(CO)(O4)C3C2=O)ccc1Cl` (stereo not given), the percent of control (FP) was 103%.
With `CCN(CC)c1ccc2cc(C(N)=O)/c(=N\NC(=O)c3ccccc3)oc2c1` the percent of control (FP) was -46.7% (active).
`CCN(CC)c1ccc2cc(C(=O)NC(C)=O)c(=Nc3ccc(F)cc3F)oc2c1` showed a percent of control (FP) of 117%.
For `CCN(CC)c1ccc2cc(C(=O)NC(C)=O)c(=Nc3ccccc3OC)oc2c1`, the percent of control (FP) was 114%.
With `O=S(=O)(NCc1ccco1)c1ccc(Cl)cc1` the percent of control (FP) was 101%.
Work on `Cc1ccc2ccc3cc(C(=O)NC4CCCC4)nc3c2[nH]1` yielded a percent of control (FP) of 112%.
`O=C1/C(=C/c2ccc([N+](=O)[O-])cc2)C=C(c2ccccc2)N1c1cccc(Cl)c1Cl` was tested, and the percent of control (FP) was 109%.
For `O=C1/C(=C/c2ccc(Br)cc2)C=C(c2ccccc2)N1c1ccccc1Br`, the percent of control (FP) was 119%.
With `COc1ccccc1N1C(=O)/C(=C/c2ccc(Cl)cc2)C=C1c1ccccc1` the percent of control (FP) was 78.1% (active).
In the case of `CC(C)NC(=O)C1=CC(c2ccco2)=NS(=O)(=O)N1C`, the percent of control (FP) was 107%.
In the case of `Cc1[nH]c(C(=O)Nc2ccc(F)cc2)c(C)c1S(=O)(=O)N1CCCC1`, the percent of control (FP) was 112%.
`Cc1cc(C)nc(NS(=O)(=O)c2ccc(NC(=O)C(C)Oc3ccc(Cl)cc3Cl)cc2)n1` (stereo not given) gave a percent of control (FP) of 111%.
For `Cc1[nH]n(-c2ccccc2)c(=O)c1C(c1ccc(C(F)(F)F)cc1)c1c(C)[nH]n(-c2ccccc2)c1=O`, the percent of control (FP) was 92.3%.
`COc1ccc(C(=O)Oc2ccc(C(c3c(C)[nH]n(-c4ccccc4)c3=O)c3c(C)[nH]n(-c4ccccc4)c3=O)cc2)cc1` showed a percent of control (FP) of 111%.
`CC1=NOC(=O)C1C(c1cccc(Br)c1)c1c(C)[nH]n(-c2ccccc2)c1=O` (stereo not given) was tested, and the percent of control (FP) was 48.2% (active).
